Results: publication PMC8166871

Biological target: Flag-tagged ATG4B Y8C in the F349A/F388A background (human) (UniProt Q9Y4P1)
Experiment: co-IP; HEK293T co-transfected with the Flag-tagged protein and GFP-tagged LC3B or GABARAPL1 for 24 h; lysis in 50 mM Tris pH 7.4, 50 mM NaCl, 0.5% Nonidet P-40; anti-Flag gel at 4 °C overnight, washed with TBS three times; immunoblot

GFP-tagged LC3B (microtubule-associated protein 1 light chain 3B) (from UniProt Q9GZQ8 1-120) (natural protein)
bound LC3B, percent of wild type (% of wild type): 37
